{"sequences": {"note": "Sequences of proteins named here, by UniProt entry; tags and fusion partners are left off. A change or cut given only in a name is not applied to a line headed by its entry.", "UniProt Q9H244": "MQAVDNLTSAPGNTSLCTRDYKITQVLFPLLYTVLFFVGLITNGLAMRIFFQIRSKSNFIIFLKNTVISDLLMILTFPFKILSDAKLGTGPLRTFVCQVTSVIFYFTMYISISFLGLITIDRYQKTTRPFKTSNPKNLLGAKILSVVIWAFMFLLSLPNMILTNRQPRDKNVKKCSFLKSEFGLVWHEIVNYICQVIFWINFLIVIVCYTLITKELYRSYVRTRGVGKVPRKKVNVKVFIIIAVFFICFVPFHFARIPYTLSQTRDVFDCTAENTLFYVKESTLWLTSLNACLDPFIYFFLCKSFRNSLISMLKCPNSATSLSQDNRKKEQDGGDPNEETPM"}, "source": "BindingDB's records for 28789912", "about": "(Punjabi University, 2017)", "target": "P2Y purinoceptor 12 (Homo sapiens, UniProt Q9H244)", "assay": "ChEBML_1694650"}
{"smiles": "O=[N+]([O-])c1cccc2[nH]nnc12", "values": [{"measurement": "IC50", "value": 2060, "unit": "µM"}]}
